Assays:
PKCδ-C1B = PKCδ-C1B (Homo sapiens (Human), UniProt Q05655); assay: PKCδ-C1B Assay; format: binding; conditions: for activity in PKCδ-C1B assay relative to comparison analogues: 702.1 vs C26 methyl-containing analogue, 48, 49 vs other C20 esters; for Ki: read-out: PKCδ-C1B Assay Ki, competition with tritiated phorbol 12,13-dibutyrate
P388 cell line = assay: P388 Murine Lymphocytic Leukemia Cell Assay; conditions: for activity in P388 assay relative to comparison analogues: 702.1 vs C26 methyl-containing analogue, 48, 49 vs other C20 esters; for P388 Assay ED50: 5 days incubation, MTT

The chains behind the UniProt entries cited, without tags or fusion partners. Where a name states a change or a piece, a line headed by the entry shows the natural chain unless it says otherwise. Residues count along the entry.
UniProt Q05655, 230-280 limits assumed: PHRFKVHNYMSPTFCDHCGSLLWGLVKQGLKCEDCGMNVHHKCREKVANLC

COC(=O)/C=C1\C[C@H]2C[C@H]([C@@H](C)O)OC(=O)C[C@H](O)C[C@@H]3CCC[C@H](C[C@@H]4CCO[C@H](/C=C/C(C)(C)[C@](O)(O2)[C@H]1OC(=O)c1ccccc1)O4)O3
activity in PKCδ-C1B assay relative to comparison analogues (PKCδ-C1B): higher activity | Ki (PKCδ-C1B): 1.7 nM | activity in P388 assay relative to comparison analogues (P388 cell line): higher activity | P388 Assay ED50 (P388 cell line): 42 nM

CCCCCCCCCCCCCC(=O)O[C@H]1/C(=C/C(=O)OC)C[C@H]2C[C@H]([C@@H](C)O)OC(=O)C[C@H](O)C[C@@H]3CCC[C@H](C[C@@H]4CCO[C@H](/C=C/C(C)(C)[C@]1(O)O2)O4)O3
activity in PKCδ-C1B assay relative to comparison analogues (PKCδ-C1B): higher activity | Ki (PKCδ-C1B): 1.3 nM | activity in P388 assay relative to comparison analogues (P388 cell line): higher activity | P388 Assay ED50 (P388 cell line): 3.6 nM
